One substance from patent US10689415B2, “Conjugates of RGD peptides and (bacterio)chlorophyll photosensitizers” (YEDA RESEARCH AND DEVELOPMENT COMPANY LTD., priority 2006, dated 2020) can be followed below.

Sequences of proteins named here, by UniProt entry; tags and fusion partners are left off. Residues count along the entry.
UniProt O54890, 26-787: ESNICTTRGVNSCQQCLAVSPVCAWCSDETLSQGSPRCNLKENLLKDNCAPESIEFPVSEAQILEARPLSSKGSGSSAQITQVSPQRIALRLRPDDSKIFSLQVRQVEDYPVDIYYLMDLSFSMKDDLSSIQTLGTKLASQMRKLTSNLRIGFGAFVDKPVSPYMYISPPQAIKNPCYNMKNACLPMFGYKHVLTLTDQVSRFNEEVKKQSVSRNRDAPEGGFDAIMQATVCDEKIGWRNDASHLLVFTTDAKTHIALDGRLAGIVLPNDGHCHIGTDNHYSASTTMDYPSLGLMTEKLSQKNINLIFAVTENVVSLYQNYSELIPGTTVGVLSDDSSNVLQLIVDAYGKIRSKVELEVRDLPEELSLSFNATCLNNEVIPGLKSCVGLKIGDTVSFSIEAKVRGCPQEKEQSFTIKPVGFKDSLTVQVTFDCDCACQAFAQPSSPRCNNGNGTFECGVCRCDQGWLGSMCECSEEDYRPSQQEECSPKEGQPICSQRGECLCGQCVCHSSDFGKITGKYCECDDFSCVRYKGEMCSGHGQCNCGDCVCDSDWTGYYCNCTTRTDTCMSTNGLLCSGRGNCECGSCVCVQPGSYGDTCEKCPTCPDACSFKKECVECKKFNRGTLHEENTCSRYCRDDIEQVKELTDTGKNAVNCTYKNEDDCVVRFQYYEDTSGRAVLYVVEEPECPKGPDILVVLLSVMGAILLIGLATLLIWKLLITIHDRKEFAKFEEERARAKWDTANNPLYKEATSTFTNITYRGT
UniProt P43406, 887-1044 limits assumed: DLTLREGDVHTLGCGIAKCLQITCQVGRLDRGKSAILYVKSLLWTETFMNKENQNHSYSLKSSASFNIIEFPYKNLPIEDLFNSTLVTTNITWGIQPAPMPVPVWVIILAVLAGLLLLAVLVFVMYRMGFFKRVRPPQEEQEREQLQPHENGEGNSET
UniProt P43406, 31-885 limits assumed: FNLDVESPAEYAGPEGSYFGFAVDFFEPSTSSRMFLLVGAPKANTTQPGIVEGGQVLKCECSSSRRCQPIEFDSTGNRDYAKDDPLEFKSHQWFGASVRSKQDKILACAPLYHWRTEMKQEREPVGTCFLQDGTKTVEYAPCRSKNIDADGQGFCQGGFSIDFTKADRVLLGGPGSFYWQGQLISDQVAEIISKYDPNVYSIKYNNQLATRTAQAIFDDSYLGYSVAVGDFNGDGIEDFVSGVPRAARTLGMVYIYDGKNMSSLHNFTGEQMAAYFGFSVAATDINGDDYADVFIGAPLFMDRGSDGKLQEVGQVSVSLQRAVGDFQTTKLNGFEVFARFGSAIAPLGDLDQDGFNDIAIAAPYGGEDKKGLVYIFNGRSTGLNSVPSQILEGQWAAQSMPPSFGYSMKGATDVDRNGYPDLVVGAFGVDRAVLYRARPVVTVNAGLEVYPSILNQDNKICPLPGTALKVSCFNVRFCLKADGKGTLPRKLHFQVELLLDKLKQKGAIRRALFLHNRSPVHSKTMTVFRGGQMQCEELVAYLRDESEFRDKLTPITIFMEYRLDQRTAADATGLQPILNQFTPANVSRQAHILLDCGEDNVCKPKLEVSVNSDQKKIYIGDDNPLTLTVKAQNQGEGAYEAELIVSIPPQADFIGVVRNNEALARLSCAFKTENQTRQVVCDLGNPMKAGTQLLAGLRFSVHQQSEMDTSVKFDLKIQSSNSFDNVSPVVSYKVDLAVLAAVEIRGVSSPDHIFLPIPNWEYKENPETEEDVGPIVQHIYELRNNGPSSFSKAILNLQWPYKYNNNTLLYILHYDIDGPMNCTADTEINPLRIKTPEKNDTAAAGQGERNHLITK

For the assay, the target named is αvβ3 integrin receptor (Mus musculus, UniProt O54890+P43406). Briefly: αvβ3 integrin receptor binding assay of Eu-RGD-4C on H5V endothelial cells (time-resolved fluorometry, Scatchard).

“Eu-RGD-4C: RGD-4C labeled with Eu by direct conjugation of isothiocyanatophenyl-DTPA-Eu”: for the setting “H5V cells”, the receptors per cell is recorded as 1-1.8 million receptors per cell. In addition, where the note is “H5V cells, 4° C., 2 h”, the “1/Kd=Ka, the tested compound's affinity (Scatchard analysis)” value lay within 37.2 to 41.3 nM and the “Bmax (the maximal number of binding sites)” value fell in the range of 4.3 to 7.7 nM. Moreover, the “non-specific binding from total added ligand (mean±SD)” value (presence of 1 μM RGD-4C) is given as 4.9%±2.4%.
